Results published in patent EP4834901A1, “PARP7 INHIBITOR AND USE THEREOF” (dated 2026).

By UniProt entry, the sequences of proteins in these tests, tags left out.
UniProt Q7Z3E1, whole entry: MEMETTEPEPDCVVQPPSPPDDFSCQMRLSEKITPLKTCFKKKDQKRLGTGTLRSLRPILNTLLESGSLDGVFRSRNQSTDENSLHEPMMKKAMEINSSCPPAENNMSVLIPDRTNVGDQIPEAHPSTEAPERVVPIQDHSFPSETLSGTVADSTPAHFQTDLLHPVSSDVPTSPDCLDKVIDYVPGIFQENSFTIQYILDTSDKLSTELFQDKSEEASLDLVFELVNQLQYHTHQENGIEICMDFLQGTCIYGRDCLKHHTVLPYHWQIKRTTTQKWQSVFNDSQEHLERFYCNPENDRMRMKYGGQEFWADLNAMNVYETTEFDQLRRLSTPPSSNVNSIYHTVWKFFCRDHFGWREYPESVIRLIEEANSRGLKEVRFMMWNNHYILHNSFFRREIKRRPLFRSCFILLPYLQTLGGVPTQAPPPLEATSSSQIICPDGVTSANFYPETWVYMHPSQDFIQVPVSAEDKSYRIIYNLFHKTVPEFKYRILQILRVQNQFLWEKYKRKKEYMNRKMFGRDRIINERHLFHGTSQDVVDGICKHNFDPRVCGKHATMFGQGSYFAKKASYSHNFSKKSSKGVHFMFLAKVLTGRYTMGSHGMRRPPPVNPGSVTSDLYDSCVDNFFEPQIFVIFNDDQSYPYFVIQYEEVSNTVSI
UniProt Q9H0J9, whole entry: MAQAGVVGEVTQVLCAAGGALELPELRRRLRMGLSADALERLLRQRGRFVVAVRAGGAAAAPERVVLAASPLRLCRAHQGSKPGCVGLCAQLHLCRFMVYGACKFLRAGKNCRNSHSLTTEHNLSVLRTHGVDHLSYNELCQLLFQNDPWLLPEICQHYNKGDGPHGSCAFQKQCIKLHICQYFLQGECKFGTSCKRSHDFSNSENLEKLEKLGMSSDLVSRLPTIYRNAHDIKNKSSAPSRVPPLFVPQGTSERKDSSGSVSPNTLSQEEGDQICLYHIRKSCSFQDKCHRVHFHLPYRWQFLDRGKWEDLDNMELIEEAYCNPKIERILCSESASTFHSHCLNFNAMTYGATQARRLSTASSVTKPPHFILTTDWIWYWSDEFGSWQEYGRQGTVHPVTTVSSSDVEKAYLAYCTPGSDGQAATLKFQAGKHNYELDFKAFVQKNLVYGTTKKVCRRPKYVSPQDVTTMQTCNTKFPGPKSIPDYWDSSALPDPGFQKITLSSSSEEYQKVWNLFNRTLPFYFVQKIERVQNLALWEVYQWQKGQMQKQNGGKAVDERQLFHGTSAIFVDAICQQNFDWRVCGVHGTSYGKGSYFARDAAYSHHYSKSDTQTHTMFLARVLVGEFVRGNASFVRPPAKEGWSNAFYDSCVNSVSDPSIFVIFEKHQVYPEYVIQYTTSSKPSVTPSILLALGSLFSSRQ
UniProt P09874, whole entry: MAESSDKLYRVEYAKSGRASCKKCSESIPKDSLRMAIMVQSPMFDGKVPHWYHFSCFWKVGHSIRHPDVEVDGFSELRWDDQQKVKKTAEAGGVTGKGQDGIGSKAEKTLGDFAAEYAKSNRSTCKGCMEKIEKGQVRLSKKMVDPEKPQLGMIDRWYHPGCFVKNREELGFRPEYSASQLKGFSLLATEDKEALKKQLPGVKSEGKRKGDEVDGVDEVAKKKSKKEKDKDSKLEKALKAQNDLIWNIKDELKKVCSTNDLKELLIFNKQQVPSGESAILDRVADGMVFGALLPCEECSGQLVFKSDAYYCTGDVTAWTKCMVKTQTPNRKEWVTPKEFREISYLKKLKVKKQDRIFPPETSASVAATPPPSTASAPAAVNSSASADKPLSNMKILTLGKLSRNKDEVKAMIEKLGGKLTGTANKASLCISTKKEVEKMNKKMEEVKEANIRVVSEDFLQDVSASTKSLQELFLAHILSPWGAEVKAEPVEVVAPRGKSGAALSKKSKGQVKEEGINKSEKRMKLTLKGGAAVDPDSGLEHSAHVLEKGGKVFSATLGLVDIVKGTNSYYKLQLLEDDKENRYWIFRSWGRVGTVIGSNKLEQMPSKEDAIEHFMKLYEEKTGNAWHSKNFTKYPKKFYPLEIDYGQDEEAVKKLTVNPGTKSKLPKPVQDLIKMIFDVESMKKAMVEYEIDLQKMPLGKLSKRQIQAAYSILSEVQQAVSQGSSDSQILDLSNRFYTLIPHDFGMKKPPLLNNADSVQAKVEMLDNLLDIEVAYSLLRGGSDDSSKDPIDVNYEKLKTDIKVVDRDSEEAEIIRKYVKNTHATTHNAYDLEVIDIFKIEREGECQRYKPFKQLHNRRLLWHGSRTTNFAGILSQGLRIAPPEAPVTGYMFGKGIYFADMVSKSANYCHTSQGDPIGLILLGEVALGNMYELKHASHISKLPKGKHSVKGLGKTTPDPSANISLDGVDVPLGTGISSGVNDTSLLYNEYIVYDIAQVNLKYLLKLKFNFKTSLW

Tests used:
[1] = biological target: Recombinant human PARP7 (Homo sapiens, UniProt Q7Z3E1); assay: Inhibitory effect of the compounds on PARP7 enzyme activity (histone-coated plate, Biotin-NAD+, chemiluminescence); settings: read-out: PARP7 IC50
[2] = biological target: recombinant human PARP12 (Homo sapiens, UniProt Q9H0J9); assay: Inhibition of PARP12 enzyme activity (same method as PARP7 except for the enzyme); settings: for PARP 12 IC50/PARP7 IC50: fold selectivity PARP12 relative to PARP7; for IC50: read-out: PARP12 IC50, recombinant human PARP12
[3] = Pharmacokinetic study in mice; settings: for AUC last / Cmax: plasma; for T1/2: plasma half-life; for drug clearance rate (CL(iv)) of RBN-2397 relative to that of the compound: intravenous administration 3 mg/kg; for maximum plasma concentration (Cmax) relative to that of RBN-2397 / plasma exposure relative to that of RBN-2397: oral administration of 10 mg/kg; for F%: oral bioavailability, PO 10mg/kg vs IV 3mg/kg; for AUClast (plasma exposure) relative to that of RBN-2397: tail vein injection of 3 mg/kg
[4] = biological target: recombinant human PARP1 protein (Homo sapiens, UniProt P09874); assay: Inhibition of PARP1 enzyme activity (histone-coated plate, activated DNA, Biotin-NAD+, chemiluminescence); settings: for PARP1 IC50/PARP7 IC50: fold selectivity PARP1 relative to PARP7; for IC50: read-out: PARP 1 IC50, recombinant human PARP1 protein
[5] = test system: STAT1 and p-STAT1 proteins in CT26 mouse colon cancer cells; assay: Restoration of the type I interferon signaling pathway in cells (Western blot of STAT1 and p-STAT1); settings: CT26 cells, 0.1, 0.3, 1, 3 and 10 µM, 24 hours, Western blot (Figure 1)

| Compound | IC50 [1] [nM] | also measured |
| --- | --- | --- |
| CCC(ONC(=O)C1=CCN(c2ncc(C(F)(F)F)cn2)CC1)c1c[nH]c(=O)c(C(F)(F)F)c1 (racemic) | 6.6 | – |
| C[C@@H](ONC(=O)C1=CCN(c2ncc(C#N)cn2)CC1)c1c[nH]c(=O)c(C(F)(F)F)c1 | 3.2 | – |
| O=C(NOCc1c[nH]c(=O)c(C(F)(F)F)c1)C1C=CN(c2ncc(C(F)(F)F)cn2)CC1 (stereo not shown) | 16 | – |
| CC[C@H](ONC(=O)C1=CCN(c2ncc(C(F)(F)F)cn2)CC1)c1c[nH]c(=O)c(C(F)(F)F)c1 | 84 | – |
| CC1=CN(c2ncc(C(F)(F)F)cn2)CCC1C(=O)NO[C@H](C)c1c[nH]c(=O)c(C(F)(F)F)c1 (stereo partly shown) | 31 | – |
| C[C@H](ONC(=O)C1=CCN(c2ncc(C(F)(F)F)cn2)CC1)c1c[nH]c(=O)c(C(F)(F)F)c1 | 18 | – |
| CC(=O)Nc1cnc(N2CC=C(C(=O)NO[C@H](C)c3c[nH]c(=O)c(C(F)(F)F)c3)CC2)nc1 | 24 | – |
| C[C@@H](ONC(=O)N1C2CC1CN(c1ncc(C(F)(F)F)cn1)C2)c1c[nH]c(=O)c(C(F)(F)F)c1 | 51 | – |
| CC(=O)Nc1cnc(N2CCN(C(=O)NO[C@H](C)c3c[nH]c(=O)c(C(F)(F)F)c3)CC2)nc1 | 16 | – |
| C[C@@H](ONC(=O)N1C2CCC1CN(c1ncc(C(F)(F)F)cn1)C2)c1c[nH]c(=O)c(C(F)(F)F)c1 | 2.1 | – |
| C[C@H](ONC(=O)C1=CCN(c2ncc(C3CC3)cn2)CC1)c1c[nH]c(=O)c(C(F)(F)F)c1 | 83 | – |
| C[C@H](ONC(=O)C1=CCN(c2ccc(C(F)(F)F)cn2)CC1)c1c[nH]c(=O)c(C(F)(F)F)c1 | 122 | – |
| CC1=C(C(=O)NO[C@H](C)c2c[nH]c(=O)c(C(F)(F)F)c2)CCN(c2ncc(C(F)(F)F)cn2)C1 | 26 | – |
| C[C@H](ONC(=O)N1CCN(c2ncc(C(F)(F)F)c3cc[nH]c23)CC1)c1c[nH]c(=O)c(C(F)(F)F)c1 | 4.6 | – |
| CC(CONC(=O)C1=CCN(c2ncc(C(F)(F)F)cn2)CC1)c1c[nH]c(=O)c(C(F)(F)F)c1 (stereo not shown) | 8.7 | – |
| [2H][C@@](C)(ONC(=O)C1=CCN(c2ncc(C(F)(F)F)cn2)CC1)c1c[nH]c(=O)c(C(F)(F)F)c1 | 14 | – |
| CCC(ONC(=O)N1CCN(c2ncc(C(F)(F)F)cn2)CC1)c1c[nH]c(=O)c(C(F)(F)F)c1 (racemic) | 5.1 | – |
| CC[C@H](ONC(=O)N1CCN(c2ncc(C(F)(F)F)cn2)CC1)c1c[nH]c(=O)c(C(F)(F)F)c1 (single isomer, unassigned) | 25 | – |
| C[C@@H](ONC(=O)C1=CCN(c2ncc(C(F)(F)F)cn2)CC1)c1c[nH]c(=O)c(C(F)(F)F)c1 | 1.9 | PARP 12 IC50/PARP7 IC50 [2]: 120.5 fold; IC50 [2]: 229 nM; CL(iv) ([3]; IV 3mg/kg): 15.3 mL/min/kg; plasma half-life (T1/2) relative to that of RBN-2397 ([3]; IV 3mg/kg): 5.4 times; AUC last ([3]; IV 3mg/kg): 3224 ng·h/mL; T1/2 ([3]; IV 3mg/kg): 1.08 h; AUC last ([3]; PO 10mg/kg): 9388 ng·h/mL; Cmax ([3]; PO 10mg/kg): 5163 ng/mL; drug clearance rate (CL(iv)) of RBN-2397 relative to that of the compound [3]: 4.5 times; maximum plasma concentration (Cmax) relative to that of RBN-2397 [3]: 7.6 times; plasma exposure relative to that of RBN-2397 [3]: 16.1 times; F% [3]: 88.4%; AUClast (plasma exposure) relative to that of RBN-2397 [3]: approximately 4.4 times; PARP1 IC50/PARP7 IC50 [4]: 421.6 fold; IC50 [4]: 801 nM; expression of STAT1 and p-STAT1 proteins [5]: dose-dependently increased |
| C[C@@H](ONC(=O)C1=CCN(c2ncc(-c3ccc(F)cc3)cn2)CC1)c1c[nH]c(=O)c(C(F)(F)F)c1 | 3 | – |
| O=C(NOCc1c[nH]c(=O)c(C(F)(F)F)c1)N1CCN(c2ncc(C(F)(F)F)cn2)CC1 | 4.1 | – |
| CC[C@@H](ONC(=O)C1=CCN(c2ncc(C(F)(F)F)cn2)CC1)c1c[nH]c(=O)c(C(F)(F)F)c1 | 4.1 | – |
| C[C@H](ONC(=O)N1CCN(c2ncc(C(F)(F)F)cn2)CC1)c1c[nH]c(=O)c(C(F)(F)F)c1 | 10.2 | – |
| O=C(NOC(CO)c1c[nH]c(=O)c(C(F)(F)F)c1)C1=CCN(c2ncc(C(F)(F)F)cn2)CC1 (stereo not shown) | 5.8 | – |
| O=C(NOCc1c[nH]c(=O)c(C(F)(F)F)c1)C1=CCN(c2ncc(C(F)(F)F)cn2)CC1 | 6.9 | – |

Compounds with a lower IC50 [1], results first:

| IC50 [1] [nM] | Compound | also measured |
| --- | --- | --- |
| 0.79 | C[C@@H](ONC(=O)N1CCN(c2ncc(C(F)(F)F)cn2)C[C@@H]1C)c1c[nH]c(=O)c(C(F)(F)F)c1 | – |
| 1.6 | C[C@@H](ONC(=O)C1=CCN(c2ncc(C3CC3)cn2)CC1)c1c[nH]c(=O)c(C(F)(F)F)c1 | – |
| 0.64 | C[C@@H](ONC(=O)C1=CCN(c2ncc(C(F)(F)F)c3[nH]cnc23)CC1)c1c[nH]c(=O)c(C(F)(F)F)c1 | – |
| 1.5 | C[C@@H](ONC(=O)N1CCN(c2ncc(C(F)(F)F)cn2)CC1)c1c[nH]c(=O)c(C(F)(F)F)c1 | PARP 12 IC50/PARP7 IC50 [2]: 53.3 fold; IC50 [2]: 80 nM; CL(iv) ([3]; IV 3mg/kg): 8.12 mL/min/kg; plasma half-life (T1/2) relative to that of RBN-2397 ([3]; IV 3mg/kg): 8.2 times; AUC last ([3]; IV 3mg/kg): 6037 ng·h/mL; T1/2 ([3]; IV 3mg/kg): 1.63 h; AUC last ([3]; PO 10mg/kg): 19377 ng·h/mL; Cmax ([3]; PO 10mg/kg): 7527 ng/mL; drug clearance rate (CL(iv)) of RBN-2397 relative to that of the compound [3]: 8.4 times; maximum plasma concentration (Cmax) relative to that of RBN-2397 [3]: 11.0 times; plasma exposure relative to that of RBN-2397 [3]: approximately 33.3 times; F% [3]: 94.3%; AUClast (plasma exposure) relative to that of RBN-2397 [3]: approximately 8.2 times; PARP1 IC50/PARP7 IC50 [4]: 300.7 fold; IC50 [4]: 451 nM; expression of STAT1 and p-STAT1 proteins [5]: dose-dependently increased |
| 1.1 | C[C@@H](ONC(=O)C1=CCN(c2ccc(C(F)(F)F)cn2)CC1)c1c[nH]c(=O)c(C(F)(F)F)c1 | – |
| 1.1 | CC[C@@H](ONC(=O)N1CCN(c2ncc(C(F)(F)F)cn2)CC1)c1c[nH]c(=O)c(C(F)(F)F)c1 (single isomer, unassigned) | – |
| 1.3 | [2H][C@](C)(ONC(=O)C1=CCN(c2ncc(C(F)(F)F)cn2)CC1)c1c[nH]c(=O)c(C(F)(F)F)c1 | – |
| 1 | C[C@@H](ONC(=O)N1CCN(c2ncc(C(F)(F)F)c3cc[nH]c23)CC1)c1c[nH]c(=O)c(C(F)(F)F)c1 | – |
| 0.55 | C[C@@H](ONC(=O)N1CCN(c2ncc(C(F)(F)F)c3[nH]cnc23)CC1)c1c[nH]c(=O)c(C(F)(F)F)c1 | – |
| 1.2 | C[C@@H](ONC(=O)C1=CCN(c2ncc3ccccc3n2)CC1)c1c[nH]c(=O)c(C(F)(F)F)c1 | – |
| 1.3 | C[C@@H](ONC(=O)N1CCN(c2ncc(C3CC3)cn2)CC1)c1c[nH]c(=O)c(C(F)(F)F)c1 | – |
| 1.4 | C[C@@H](ONC(=O)C1=CCN(c2ncc(Br)cn2)CC1)c1c[nH]c(=O)c(C(F)(F)F)c1 | – |
| 0.72 | C[C@@H]1CN(c2ncc(C(F)(F)F)cn2)CCN1C(=O)NO[C@H](C)c1c[nH]c(=O)c(C(F)(F)F)c1 | – |
